Data reported in paper PMC5180416 (Journal of the American Chemical Society, 2012).
Where “and” joins values, the source holds several entries; their conditions need not be identical. Equal entries are not always repeated. Where two headings read alike, the source gives them in different places.

Columns and labels:
[1] = molecular target: MLL1 core complex (MLL1/WDR5/RbBP5/ASH2L) (Homo sapiens, UniProt P61964); test: In vitro H3K4 histone methyltransferase; type: biochemical
WDR5 = WDR5 (Homo sapiens, UniProt P61964); test: Fluorescence-polarization; type: binding
[2] = IC50 ± SD, binding affinity to WDR5, FP-based competitive binding

Structure (SMILES)	IC50 [1] [nM]	Ki (WDR5) [nM]	IC50 (WDR5; [2])	IC50 (WDR5) [nM]	Ki (WDR5; read-out: Ki ± SD, binding affinity to WDR5, FP-based competitive binding) [nM]
CC(=O)NCC(=O)N[C@@H](CCCNC(=N)N)C(=O)N[C@@H](C)C(N)=O [Compound 1a]	> 400000	16700 ± 2800	> 3000 nM and 77400 nM	–	–
CC[C@H](NC(C)=O)C(=O)N[C@@H](CCCNC(=N)N)C(=O)N[C@@H](C)C(N)=O [Compound 1b]	–	60 ± 1	–	–	–
CC(=O)N[C@H](C(=O)N[C@@H](CCCNC(=N)N)C(=O)N[C@@H](C)C(N)=O)C(C)C [Compound 1c]	12100 ± 600	50 ± 5	–	240 ± 30	–
CC(=O)N[C@@H](CS)C(=O)N[C@@H](CCCNC(=N)N)C(=O)N[C@@H](C)C(N)=O [Compound 1d]	–	–	–	1830 ± 300	400 ± 600
CC(=O)N[C@@H](CC(C)C)C(=O)N[C@@H](CCCNC(=N)N)C(=O)N[C@@H](C)C(N)=O [Compound 1e]	–	2300 ± 300	–	10800 ± 400	–
CC(=O)N[C@@H](Cc1c[nH]cn1)C(=O)N[C@@H](CCCNC(=N)N)C(=O)N[C@@H](C)C(N)=O [Compound 1g]	–	400 ± 30	–	1700 ± 300	–
CC(=O)N[C@@H](Cc1ccccc1)C(=O)N[C@@H](CCCNC(=N)N)C(=O)N[C@@H](C)C(N)=O [Compound 1h]	> 400000	700 ± 70	> 3000 nM and 3100 nM	–	–
CC(=O)N[C@@H](CO)C(=O)N[C@@H](CCCNC(=N)N)C(=O)N[C@@H](C)C(N)=O [Compound 1i]	–	600 ± 100	–	2900 ± 610	–
CC(=O)N[C@H](C(=O)N[C@@H](CCCNC(=N)N)C(=O)N[C@@H](C)C(N)=O)[C@@H](C)O [Compound 1j]	–	600 ± 90	2900 ± 400 nM	–	–

Continued, values first:

IC50 [1] [nM]	Ki (WDR5) [nM]	IC50 (WDR5; [2])	IC50 (WDR5) [nM]	Ki (WDR5; read-out: Ki ± SD, binding affinity to WDR5, FP-based competitive binding) [nM]	Structure (SMILES)
> 400000	> 65000	> 300000 nM	–	–	CC(=O)N[C@@H](C)C(=O)N[C@@H](CCCNC(N)=O)C(=O)N[C@@H](C)C(N)=O [Compound 2d]
–	2200 ± 300	–	10300 ± 1200	–	CC(=O)N[C@@H](C)C(=O)N[C@@H](CCCNC(=N)N)C(=O)NCC(N)=O [Compound 3a]
1800 ± 200	6 ± 2	–	30 ± 8	–	CC[C@H](NC(=O)[C@H](CCCNC(=N)N)NC(=O)[C@H](C)NC(C)=O)C(N)=O [Compound 3b]
–	20 ± 3	–	110 ± 20	–	CC(=O)N[C@@H](C)C(=O)N[C@@H](CCCNC(=N)N)C(=O)N[C@H](C(N)=O)C(C)C [Compound 3c]
–	20 ± 3	80 ± 10 nM	–	–	CC(=O)N[C@@H](C)C(=O)N[C@@H](CCCNC(=N)N)C(=O)N[C@@H](CS)C(N)=O [Compound 3d]
–	7300 ± 1200	–	34000 ± 6000	–	CC(=O)N[C@@H](C)C(=O)N[C@@H](CCCNC(=N)N)C(=O)N[C@@H](CC(C)C)C(N)=O [Compound 3e]
–	60000 ± 8000	–	–	–	CC(=O)N[C@@H](C)C(=O)N[C@@H](CCCNC(=N)N)C(=O)N[C@@H](Cc1ccccc1)C(N)=O [Compound 3g]
–	400 ± 70	–	1800 ± 30	–	CC(=O)N[C@@H](C)C(=O)N[C@@H](CCCNC(=N)N)C(=O)N[C@@H](CO)C(N)=O [Compound 3h]
–	> 20000	–	> 100000	–	CC(=O)N[C@@H](C)C(=O)N[C@@H](CCCNC(=N)N)C(=O)N[C@@H](CCC(=O)O)C(N)=O [Compound 3j]
–	–	–	20 ± 10	–	CCC(CC)(NC(C)=O)C(=O)N[C@@H](CCCNC(=N)N)C(=O)N[C@H](C(N)=O)C(C)C [Compound 4f]
–	40 ± 2	–	–	–	CCC[C@H](NC(C)=O)C(=O)N[C@@H](CCCNC(=N)N)C(=O)N[C@H](C(N)=O)C(C)C [Compound 4h]
